Results reported in ChEMBL document CHEMBL6120968, “Discovery of Thiadiazoleamide Derivatives as Potent, Selective, and Orally Available Antagonists Disrupting Androgen Receptor Homodimer” (J Med Chem, 2024).

Sequences of proteins named here, by UniProt entry; tags and fusion partners are left off. A change or cut given only in a name is not applied to a line headed by its entry.
UniProt P10275: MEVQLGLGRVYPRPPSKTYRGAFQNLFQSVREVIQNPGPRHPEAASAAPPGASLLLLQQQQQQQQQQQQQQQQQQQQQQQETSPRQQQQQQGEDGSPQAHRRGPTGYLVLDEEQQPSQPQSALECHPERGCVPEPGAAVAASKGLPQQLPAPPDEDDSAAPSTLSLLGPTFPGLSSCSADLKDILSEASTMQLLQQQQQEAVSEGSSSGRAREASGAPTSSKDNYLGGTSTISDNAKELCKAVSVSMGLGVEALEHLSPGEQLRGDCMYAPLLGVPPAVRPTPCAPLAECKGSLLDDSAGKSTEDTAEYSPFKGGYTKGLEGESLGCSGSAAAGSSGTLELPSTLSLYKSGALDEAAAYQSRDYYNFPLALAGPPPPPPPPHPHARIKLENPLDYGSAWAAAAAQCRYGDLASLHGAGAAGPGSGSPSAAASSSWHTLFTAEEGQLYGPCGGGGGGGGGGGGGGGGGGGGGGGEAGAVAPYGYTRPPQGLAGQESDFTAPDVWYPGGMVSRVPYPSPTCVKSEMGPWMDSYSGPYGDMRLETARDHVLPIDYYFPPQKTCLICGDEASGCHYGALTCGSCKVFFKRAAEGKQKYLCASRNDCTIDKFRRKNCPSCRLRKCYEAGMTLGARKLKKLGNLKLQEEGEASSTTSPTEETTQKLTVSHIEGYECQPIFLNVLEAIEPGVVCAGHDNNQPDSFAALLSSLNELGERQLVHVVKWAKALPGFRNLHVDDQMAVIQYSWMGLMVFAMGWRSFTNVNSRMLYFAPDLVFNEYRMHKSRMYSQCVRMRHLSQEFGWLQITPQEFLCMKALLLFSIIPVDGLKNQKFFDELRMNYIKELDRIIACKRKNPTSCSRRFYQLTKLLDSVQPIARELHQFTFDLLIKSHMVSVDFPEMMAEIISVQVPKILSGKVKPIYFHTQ

Key:
Androgen receptor [1] = molecular target: T1, Androgen receptor (Homo sapiens, UniProt P10275); assay: Antagonist activity at DHT-induced Androgen receptor in human LNCaP cells assessed as inhibition of receptor dimerization incubated for 4 hrs by NanoBiT analysis; format: cell-based; details: filed as antagonist, dose 4.0 µM
Androgen receptor [2] = molecular target: T1, Androgen receptor; assay: Antagonist activity at DHT-induced Androgen receptor in human LNCaP cells assessed as inhibition of receptor dimerization at 10 uM incubated for 4 hrs by NanoBiT analysis; format: cell-based; details: filed as antagonist

Q: `Cc1oc(-c2cccc(C(F)(F)F)c2)cc1C(=O)Nc1nc(CN2CCOCC2)ns1` was tested. Which Activity (Androgen receptor [1]) did it give?
A: Dose-dependent-effect

Q: And the Activity (Androgen receptor [2])?
A: Active

The source made the active and inactive calls. The calls are words filed in the database; no cut-off is given here.
